Source: PubChem BioAssay AID2237 (Johns Hopkins Ion Channel Center, 2010)
This is a selection; strong and weak results do not stand in their true shares. Some salts and complexes are drawn in separate pieces, as the source files them; their charges need not balance. Activity calls are given as the source filed them.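 Rule for the calls: active = B-score above 5 SD of library B-scores, and initial fluorescence ratio not above library mean plus 5 SD; inactive = the rest.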

Protein sequences, listed by entry. Tags and fused reporters are not part of them.
UniProt Q9QUQ5, whole entry: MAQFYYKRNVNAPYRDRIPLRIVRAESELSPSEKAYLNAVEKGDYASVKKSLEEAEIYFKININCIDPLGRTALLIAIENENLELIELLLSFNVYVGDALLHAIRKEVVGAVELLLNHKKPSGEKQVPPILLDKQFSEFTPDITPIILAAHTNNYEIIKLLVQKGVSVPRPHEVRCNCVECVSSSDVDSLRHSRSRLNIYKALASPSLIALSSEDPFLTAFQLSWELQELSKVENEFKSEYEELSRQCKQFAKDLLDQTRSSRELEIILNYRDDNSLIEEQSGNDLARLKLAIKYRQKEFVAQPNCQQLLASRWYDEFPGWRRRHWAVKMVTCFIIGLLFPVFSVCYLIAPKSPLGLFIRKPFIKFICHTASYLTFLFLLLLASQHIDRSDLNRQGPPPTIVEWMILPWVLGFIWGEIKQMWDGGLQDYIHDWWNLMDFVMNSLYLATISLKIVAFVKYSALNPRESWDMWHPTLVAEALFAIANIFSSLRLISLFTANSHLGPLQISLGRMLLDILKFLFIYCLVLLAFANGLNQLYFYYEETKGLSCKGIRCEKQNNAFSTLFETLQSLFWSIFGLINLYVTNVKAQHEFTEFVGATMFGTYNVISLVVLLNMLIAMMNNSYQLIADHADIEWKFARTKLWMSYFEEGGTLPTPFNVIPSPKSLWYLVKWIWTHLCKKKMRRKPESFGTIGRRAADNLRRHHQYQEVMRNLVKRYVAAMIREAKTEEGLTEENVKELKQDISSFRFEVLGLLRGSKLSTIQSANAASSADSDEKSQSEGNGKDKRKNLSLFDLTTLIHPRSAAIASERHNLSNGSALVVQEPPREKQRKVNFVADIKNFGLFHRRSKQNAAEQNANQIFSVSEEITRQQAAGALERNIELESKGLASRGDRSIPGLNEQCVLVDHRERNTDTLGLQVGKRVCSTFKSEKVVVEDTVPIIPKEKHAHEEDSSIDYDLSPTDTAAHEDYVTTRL

Target: Short transient receptor potential channel 4 (Mus musculus) (UniProt Q9QUQ5)
Assay: TRPC4 cation channel opening, calcium rise – Fluo4 calcium, HEK293 TRPC4beta/mu-opioid cells, primary screen (AID 2237)
Settings: Fluo4 calcium fluorescence, at 10 µM

Row | Structure (SMILES) | outcome
1 | CP(=O)(Nc1ccc(SC(F)(F)F)cc1)Oc1ccc(Cl)cc1 (stereo unspecified) | inactive
2 | CCC(C)N(CC(C)C)C(=S)SC(NC(C)=O)C(Cl)(Cl)Cl (stereo unspecified) | inactive
3 | CP(=O)(Nc1ccccn1)Oc1ccc(Cl)cc1 (stereo unspecified) | inactive
4 | CCOP(C)(=S)SCC(=O)NC(C)C(=O)O (stereo unspecified) | inactive
5 | O=C(OC1CN2CCC1CC2)c1cccc([N+](=O)[O-])c1 (stereo unspecified) | inactive
6 | CCOC(=O)c1ccc(NP(C)(=O)Oc2ccc(OC)cc2)cc1 (stereo unspecified) | inactive
7 | CCOC(=O)c1ccc(NC(=O)C(C)(CCl)SC)cc1 (stereo unspecified) | inactive
8 | O=[N+]([O-])c1cc([N+](=O)[O-])c(O)c([N+](=O)[O-])c1.c1ccc(Oc2ccncc2)cc1 | inactive
9 | CCc1ccc(OP(C)(=O)Nc2cccnc2)cc1 (stereo unspecified) | inactive
10 | CCc1nc2c(n1)c1c(non1O)c1c2no[n+]1[O-] | inactive
11 | O=[N+]([O-])c1cc([N+](=O)[O-])c(CCNc2ccccc2)c([N+](=O)[O-])c1 | inactive
12 | Cc1ccc(NP(=O)(Oc2ccccc2)Oc2ccccc2)nc1 | inactive
13 | CP(=O)(Oc1ccccc1)N1CCOC1=O (stereo unspecified) | inactive
14 | O=C(OCCCN1CCCC1)C(O)(c1ccccc1)C1CCCCC1 (stereo unspecified) | inactive
15 | O=[N+]([O-])c1cccc2n[nH]nc12 | inactive
16 | CC(=O)N1C2C3N(C(C)=O)C1C1N(C(C)=O)C(C(N1C(C)=O)N3C(C)=O)N2C(C)=O | inactive
17 | COc1ccccc1OP(C)(=O)Nc1c(C)n(C)n(-c2ccccc2)c1=O (stereo unspecified) | inactive
18 | COc1ccc(C2=NCC(CBr)S2)cc1 (stereo unspecified) | inactive
19 | COc1ccc(OP(C)(=O)Nc2ccc(Br)cc2)cc1 (stereo unspecified) | inactive
20 | CCN(CC)CC(O)COC(=O)C(O)(c1ccccc1)C1CCCCC1 (stereo unspecified) | inactive
21 | CC1CCN(C(=O)Oc2c(Cl)cc(Cl)c3cccnc23)CC1 | inactive
22 | CN(C)C(=O)OCCc1n(C)cc[n+]1C | inactive
23 | CN(C)C(=O)c1c([N+](=O)[O-])cc([N+](=O)[O-])cc1[N+](=O)[O-] | inactive
24 | CC(C)=N/N=C(\N)N[N+](=O)[O-] | inactive
25 | CP(=O)(Nc1ccc(Cl)cc1)Oc1ccc(F)cc1 (stereo unspecified) | inactive
26 | CCN(/C(=N/P(=O)(N1CCOCC1)N1CCOCC1)N1CCOCC1)c1ccc(OC)cc1 | inactive

Row | Structure (SMILES) | outcome
27 | C[N+]1=C2C=CC=CC=C2SC12C([N+](=O)[O-])=CC([N+](=O)[O-])=C[C-]2[N+](=O)[O-] (stereo unspecified) | inactive
28 | COc1ccccc1OP(C)(=O)Nc1ccccc1Br (stereo unspecified) | inactive
29 | CC(C)(C)c1ccc(OP(C)(=O)O)cc1 | inactive
30 | Nc1ccc([As](=O)(O)c2ccc(N)cc2)cc1 | inactive
31 | CP(=O)(OC12CC3CC(CC(C3)C1)C2)OC12CC3CC(CC(C3)C1)C2 | inactive
32 | O=C(Nc1cc([As](=O)(O)O)ccc1O)c1ccccc1 | inactive
33 | CCOC(=O)c1ccc(NP(C)(=O)Oc2ccc(Cl)cc2)cc1 (stereo unspecified) | inactive
34 | Nc1ccc2c(ccc3cccnc32)n1.O=[N+]([O-])c1cc([N+](=O)[O-])c(O)c([N+](=O)[O-])c1 | inactive
35 | O=C(O)CNc1ccc([As](=O)(O)O)cc1 | inactive
36 | O=[N+]([O-])c1cccc(NC2=NCC(CBr)S2)c1 (stereo unspecified) | inactive
37 | O=[N+]([O-])c1ncn(CCn2ncnc2[N+](=O)[O-])n1 | inactive
38 | CC(C)(C)C(=O)NC(Sc1ccncn1)C(Cl)(Cl)Cl (stereo unspecified) | inactive
39 | COc1ccc(OP(C)(=O)Nc2ccccc2Br)cc1 (stereo unspecified) | inactive
40 | COc1ccccc1OP(C)(=O)Nc1ccc(C)c(C)c1 (stereo unspecified) | inactive
41 | Cc1ccc(NP(=O)(Oc2ccccc2F)Oc2ccccc2F)nc1 | inactive
42 | CN(C(=O)Cc1ccc(Cl)c(Cl)c1)[C@H]1CCCC[C@@H]1N1CCCC1 | inactive
43 | Cc1cc(SC(NC(=O)c2ccc(F)cc2)C(Cl)(Cl)Cl)ncn1 (stereo unspecified) | inactive
44 | CCOP(=O)(Nc1ccccc1)OCC | inactive
45 | O=P(Nc1nc2ccc(Cl)cc2s1)(c1ccccc1)c1ccccc1 | inactive
46 | Cc1cc(C)cc(OP(C)(=O)Nc2cccc(C(F)(F)F)c2)c1 (stereo unspecified) | inactive
47 | CC(=O)Nc1ccc([As](=O)(O)O)cc1 | inactive
48 | O=C(O)c1ccccc1[As](=O)(O)O | inactive
49 | CP(=O)(Nc1ccc(Cl)cc1Cl)Oc1ccccc1 (stereo unspecified) | inactive
50 | CP(=O)(OCCOc1ccccc1)OCCOc1ccccc1 | inactive
51 | Nc1cccc2ccc([As](=O)(O)O)cc12 | inactive
52 | CCN(N=Nc1nonc1N)c1nonc1N | inactive

Row | Structure (SMILES) | outcome
53 | O=[N+]([O-])c1cc([N+](=O)[O-])c(CCN2CCOCC2)c([N+](=O)[O-])c1 | inactive
54 | Cc1nc2ccc3ccccc3c2o1.O=[N+]([O-])c1cc([N+](=O)[O-])c(O)c([N+](=O)[O-])c1 | inactive
55 | CN1CCCC(OC(=O)C(c2ccccc2)c2ccccc2)C1 (stereo unspecified) | inactive
56 | Clc1ccc(Cl)c(NC2=NCC(CBr)S2)c1 (stereo unspecified) | inactive
57 | CN(C)CCOC(=O)C(O)(c1ccccc1)C1CCCC1 (stereo unspecified) | inactive
58 | Cc1ccc(OP(=O)(Nc2nccs2)Oc2ccc(C)cc2)cc1 | inactive
59 | COc1ccccc1OP(=O)(Nc1ccc(C)cn1)Oc1ccccc1OC | inactive
60 | COc1ccc(OP(C)(=O)Nc2ccccn2)cc1 (stereo unspecified) | inactive
61 | Cc1ccc(N/C(=N/P(=O)(N2CCOCC2)N2CCOCC2)N2CCOCC2)cc1 | inactive
62 | COc1ccccc1OP(C)(=O)Nc1ccc(Br)cc1 (stereo unspecified) | inactive
63 | NC(=O)c1cc([N+](=O)[O-])cc([N+](=O)[O-])c1N | inactive
64 | CCc1ccc(OP(C)(=O)O)cc1 | inactive
65 | COc1ccccc1OP(C)(=O)Nc1ccc(C)cc1C (stereo unspecified) | inactive
66 | CP(=O)(Nc1ccccn1)Oc1ccccc1 (stereo unspecified) | inactive
67 | O=C(NC(Sc1ccncn1)C(Cl)(Cl)Cl)c1ccccc1 (stereo unspecified) | inactive
68 | Cc1c2non([O-])c-2c(C)[n+](=O)[n+]1[O-] | inactive
69 | Oc1ccccc1CNc1ccccn1 | inactive
70 | Cc1c(NP(C)(=O)Oc2ccc(C(C)C)cc2)c(=O)n(-c2ccccc2)n1C (stereo unspecified) | inactive
71 | Nc1cc(N)c2nonc2c1[N+](=O)[O-] | inactive
72 | CC(C)CC(=O)NC(Sc1ccc(Cl)cc1)C(Cl)(Cl)Cl (stereo unspecified) | inactive
73 | O=[N+]([O-])c1cc([N+](=O)[O-])c(Nc2ccccn2)c([N+](=O)[O-])c1 | inactive
74 | CC(C)c1ccc(OP(C)(=O)Nc2ccc(SC(F)(F)F)cc2)cc1 (stereo unspecified) | inactive
75 | CC(C)(C)C(=O)NC(Sc1ccccc1)C(Cl)(Cl)Cl (stereo unspecified) | inactive
76 | CP(=O)(Nc1ccccc1F)Oc1ccccc1 (stereo unspecified) | inactive
77 | CCOc1ccc(C2=NCC(CBr)S2)cc1 (stereo unspecified) | inactive
78 | O=P1(Nc2nc3ccc(Cl)cc3s2)COc2ccccc2O1 (stereo unspecified) | inactive

Row | Structure (SMILES) | outcome
79 | CC(=O)Nc1ccc(Oc2c([N+](=O)[O-])cc([N+](=O)[O-])cc2[N+](=O)[O-])cc1 | inactive
80 | CC(=O)Nc1ccc([As](=O)(O)O)c(O)c1 | inactive
81 | COc1ccc2c(c1O)-c1c(O)c(OC)cc3c1[C@H](C2)[N+](C)(C)CC3.O=[N+]([O-])c1cc([N+](=O)[O-])c([O-])c([N+](=O)[O-])c1[O-] | inactive
82 | C[C@H]1OP(=O)(Oc2ccccc2)C[C@@H]2O[C@@H]21 (stereo partly specified) | inactive
83 | C[C@@H]1C=CCP(=O)(Oc2ccccc2)O1 (stereo partly specified) | inactive
84 | O=C(OCCN1CCN(CCOCc2ccccc2)CC1)C(O)(c1ccccc1)c1ccccc1 | inactive
85 | O=C(OC1CN2CCC1CC2)c1ccc([N+](=O)[O-])cc1 (stereo unspecified) | inactive
86 | CC(=O)c1ccc(N2CC2c2ccncc2)cc1 (stereo unspecified) | inactive
87 | COc1ccc(OP(C)(=O)Nc2ccc(SC(F)(F)F)cc2)cc1 (stereo unspecified) | inactive
88 | CCOC(=O)c1ccc(NP(C)(=O)Oc2ccc(F)cc2)cc1 (stereo unspecified) | inactive
89 | Cc1ccc(NP(=O)(Oc2cccc(C)c2)Oc2cccc(C)c2)nc1 | inactive
90 | CCOC(=O)NC(Sc1ccccc1)C(Cl)(Cl)Cl (stereo unspecified) | inactive
91 | c1ccc(-c2nn[nH]n2)c(-c2nn[nH]n2)c1 | inactive
92 | CCNC(=S)/N=C(\N)N[N+](=O)[O-] | inactive
93 | O=C(NC1CCS(=O)(=O)C1)NP(=S)(Oc1ccccc1)Oc1ccccc1 (stereo unspecified) | inactive
94 | O=[N+]([O-])c1cc([N+](=O)[O-])c(OC2CCCCC2O)c([N+](=O)[O-])c1 (stereo unspecified) | inactive
95 | CCCCCOc1ccc(NP(C)(=O)Oc2ccc(Cl)cc2Cl)cc1 (stereo unspecified) | inactive
96 | CN(C)C(=O)Oc1noc2ccccc12 | inactive
97 | Cc1ccccc1OP(=O)(Nc1ccccn1)Oc1ccccc1C | inactive
98 | CP(=O)(Nc1ccccc1)Oc1ccc(F)cc1 (stereo unspecified) | inactive
99 | CCN(CC)CCCOC(=O)C(O)(c1ccccc1)C1CCCCC1 (stereo unspecified) | inactive
100 | CCC(=O)N1C2C3N(C(=O)CC)C1C1N(C(=O)CC)C(C(N1C(=O)CC)N3C(=O)CC)N2C(=O)CC | inactive
101 | O=C(OC1CN2CCC1CC2)c1ccccc1 (stereo unspecified) | inactive
102 | CC(=O)NC(SC(=S)N(CC(C)C)CC(C)C)C(Cl)(Cl)Cl (stereo unspecified) | inactive
103 | Cc1ccc(OP(=O)(Nc2ccccn2)Oc2ccc(C)cc2)cc1 | inactive
104 | COC(=O)c1cc2c(s1)N=C(c1ccccc1)N(C)P2(=O)N1CCOCC1 (stereo unspecified) | inactive

Row | Structure (SMILES) | outcome
105 | COc1ccc(NP(C)(=O)Oc2ccccc2OC)cc1 (stereo unspecified) | inactive
106 | C[C@H]1OP(=O)(Oc2ccccc2)[C@H](O)[C@H](O)[C@H]1N=[N+]=[N-] (stereo partly specified) | inactive
107 | CN(C)CCOC(=O)C(O)(c1ccccc1)C1CCCCC1 (stereo unspecified) | inactive
108 | O=P(Nc1nc2ccccc2s1)(c1ccccc1)c1ccccc1 | inactive
109 | O=P(Nc1ccccn1)(c1ccc(Br)cc1)c1ccc(Br)cc1 | inactive
110 | COc1ccc(OP(C)(=O)Nc2cccc(Br)c2)cc1 (stereo unspecified) | inactive
111 | O=C(OC1CN2CCC1CC2)c1cccc(Cl)c1 (stereo unspecified) | inactive
112 | C(Cc1nn[nH]n1)Cc1nn[nH]n1 | inactive
113 | Nc1ccc([As](=O)(O)c2ccc([N+](=O)[O-])cc2)cc1 | inactive
114 | Cc1cc(-c2cccc3ccccc23)c(C)cn1.O=[N+]([O-])c1cc([N+](=O)[O-])c(O)c([N+](=O)[O-])c1 | inactive
115 | O=[N+]([O-])c1cc([N+](=O)[O-])c(NCC2CCS(=O)(=O)C2)c([N+](=O)[O-])c1 (stereo unspecified) | inactive
116 | O=[As](O)(c1ccccc1)c1ccc(O)cc1 | inactive
117 | O=[N+]([O-])c1ccc(O)c(/C=N/Nc2ccc([N+](=O)[O-])cc2[N+](=O)[O-])c1 | inactive
118 | O=[N+]([O-])c1ccc(OP2(=O)COCCO2)cc1 (stereo unspecified) | inactive
119 | CC(=O)NC(SC(=S)N(C)C)C(Cl)(Cl)Cl (stereo unspecified) | inactive
120 | O=[N+]([O-])c1ncn(CCn2cnc([N+](=O)[O-])n2)n1 | inactive
121 | c1nnnn1CCn1cnnn1 | inactive
122 | CCOP(C)(=S)SCC(=O)NC(C)(CC)C(=O)O (stereo unspecified) | inactive
123 | CC(C)C(=O)NC(Sc1ccccc1)C(Cl)(Cl)Cl (stereo unspecified) | inactive
124 | O=P(Nc1nccs1)(c1ccccc1)c1ccccc1 | inactive
125 | CP(=O)(Nc1ccc(SC(F)(F)F)cc1)Oc1ccc(F)cc1 (stereo unspecified) | inactive
126 | CP(=O)(Nc1ccc2c(c1)OCCO2)Oc1ccccc1 (stereo unspecified) | inactive
